{"sequences": {"note": "The chains behind the UniProt entries cited, without tags or fusion partners. Residues count along the entry.", "UniProt P00915, 2-261 limits assumed": "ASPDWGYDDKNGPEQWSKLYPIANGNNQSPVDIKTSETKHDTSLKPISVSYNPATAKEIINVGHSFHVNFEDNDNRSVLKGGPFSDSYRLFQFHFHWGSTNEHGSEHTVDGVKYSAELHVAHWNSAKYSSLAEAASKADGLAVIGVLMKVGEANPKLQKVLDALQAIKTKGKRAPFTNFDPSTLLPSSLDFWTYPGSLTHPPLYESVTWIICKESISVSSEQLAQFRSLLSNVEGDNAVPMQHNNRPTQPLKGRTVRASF"}, "source": "BindingDB's records for 27283786", "about": "(2016)", "target": "Carbonic anhydrase 1 (Homo sapiens, UniProt P00915)", "test": "ASSAY_NAME: ChEMBL_158304 (CHEMBL763189) DESCRIPTION: Inhibition of human carbonic anhydrase 2 preincubated for 15 mins by stopped-flow CO2 hydrase assay", "settings": "pH 7.5"}
{"smiles": "[O]=[V]([OH])([OH])[O][V](=[O])([OH])[OH]", "values": [{"measurement": "Ki", "value": 540, "unit": "µM"}]}
